Chains of the proteins cited; added tags and fusions are not shown.
ATP-dependent Clp protease proteolytic subunit (Bacillus subtilis (strain 168)), P80244, UniProt P80244, whole entry, looked up: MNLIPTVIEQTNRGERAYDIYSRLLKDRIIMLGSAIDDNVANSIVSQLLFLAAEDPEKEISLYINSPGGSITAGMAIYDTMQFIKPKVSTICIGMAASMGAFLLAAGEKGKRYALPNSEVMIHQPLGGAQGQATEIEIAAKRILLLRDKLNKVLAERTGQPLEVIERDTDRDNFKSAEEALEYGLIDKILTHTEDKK

# Only some compounds are listed: those with a hit (about 2.5% of all), similar ones and a draw of the others.
# rTrxR1 inhibitor = inhibitors of rat thioredoxin reductase 1. recombinant rTrxR1, NADPH fluorescence consumption, selenite substrate. 390,000 compounds, 1% hits. O89049. Potency, µM (titrated, usually from 114 µM), for the others: at the highest dose activity change, negative = inhibition, usual class: inhibitors; also: potency is read from the fitted curve at half-maximal effect; % is scaled to controls: 0 for no effect and ±100 for the full control effect; nearly all actives have a fitted effect of over 65% in size
#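 Rat TrxR1 (90 nM in the dispensed reagent) was pre-reduced with 400 uM NADPH for 5 min at room temperature, then incubated with compound for 15 min. After 400 uM selenite was added, NADPH fluorescence (Ex 340/Em 450 nm) was followed for 8 min.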
# TrxR1 substrate = rat thioredoxin reductase 1 substrate activity; 390,000 compounds, 0.01% hits; purified TrxR1 substrate turnover, NADPH consumption readout; O89049; Potency, µM (top dose mostly 114 µM), inactives show at the top dose activity change, negative = substrate turnover; also: potency is read from the fitted curve at half-maximal effect; % is scaled to controls: 0 for no effect and ±100 for the full control effect; nearly all actives have a fitted effect of over 50% in size
#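 Rat TrxR1, dispensed at 90 nM, was prereduced with 400 uM NADPH (final) for 5 min at ~22 deg C, then incubated with compound 15 min before 400 uM selenite. A first-read NADPH fluorescence drop versus no-compound background flagged substrates.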
# Anesthetic bind = binds horse apoferritin like a general anesthetic; P02791; apoferritin/1-aminoanthracene competitive binding, fluorescence; Potency, µM (highest dose often 77.5 µM), for inactives: top-dose activity change, negative = displacement, actives largely listed as inhibitors; 350,000 compounds, 0.074% hits; AID 485281; also: potency is read from the fitted curve at half-maximal effect; % is scaled to controls: 0 for no effect and ±100 for the full control effect; nearly all actives have a fitted effect of over 20% in size
#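 Concentration-response curves derived by four-parameter Hill fitting of normalized fluorescence, where compounds displaced 1-AMA from 10 uM horse apoferritin following a brief 10 min room-temperature incubation; propofol titration acted as positive control.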
# miR-21 reporter = raises the signal of a miR-21 reporter; AID 2288; 340,000 tested, under 10 active; Potency, µM (doses to about 38.3 µM), inactives show at the top dose reporter change, positive = more light; HeLa miR-21 FLuc reporter, luciferase, 48 h; active = well fitted rising curve with a large enough effect; inconclusive = small, poorly fitted or top-dose-only effect; inactive = no such curve, though single readings can be large or run the other way;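 note: % of control where 0% means no effect; miR-21 action dims this reporter so a rising signal means less miR-21 action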
#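 HeLa cells stably expressing CMV-driven firefly luciferase with a downstream miR-21 binding sequence, endogenously expressing miR-21, were treated with titrations (up to about 40uM final) for 48 hours at 37 degree Celsius. Luciferase luminescence was read after lysis.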
# ClpP mod = qHTS Assay for Activators of ClpP. 340,000 compounds, 1.9% hits. purified B. subtilis ClpP, FRET peptide cleavage, 20 min. Potency, µM (doses to about 57.5 µM), for inactives: at the top dose activity change, negative = active. ATP-dependent Clp protease proteolytic subunit (Bacillus subtilis (strain 168)), P80244; active = well fitted falling curve with a large enough effect; inconclusive = small, poorly fitted or top-dose-only effect; inactive = no such curve, though single readings can be large or run the other way; also: potency is read from the fitted curve at half-maximal effect; the source files actives as falling curves though it sought activators and does not explain the sign; nearly all actives have a fitted effect of over 65% in size
#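 ClpP 10 microg/mL final, pH 8 Tris/KCl buffer with BSA, glycerol, Tween-20; compound pinned in; FRET-FV substrate; RT 20 min; Ex320/Em430; ΔFRET vs ADEP 5.8 microM, DMSO, no enzyme.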
# An asterisk follows results filed as active; ? = inconclusive; nt = no result; [ ] = dose if it differs, or a comment. Unless noted, calls follow the shape of the dose curve; as a rule, active = well fitted curve in the direction sought with a large enough effect; inconclusive = small, poorly fitted or top-dose-only effect, or another doubt; inactive = no such curve, though single readings can be large; an effect the other way counts as inactive or inconclusive.
1) COc1ccc(OC)c(-c2cc(C(=O)Nc3c(C)nn(Cc4ccccc4Cl)c3C)no2)c1
2) Cc1cc(NS(=O)(=O)c2ccc(NC(NC(=O)C(C(F)(F)F)C(F)(F)F)(C(F)(F)F)C(F)(F)F)cc2)no1
3) CCOc1ccc(CNC(=O)C2CCN(C3=NS(=O)(=O)C(c4ccc(C)cc4)=C3CC)CC2)cc1
4) CCS(=O)(=O)c1ncc(Cl)c(C(=O)N(Cc2ccccc2)Cc2ccco2)n1
5) CCOC(=O)c1c(C)[nH]c(C)c1C(=O)COC(=O)/C=C/c1cccc(F)c1
compound no.	1	2	3	4	5
rTrxR1 inhibitor	28%[57.1 µM]	10µM*	14%	2.8µM*	-3%
TrxR1 substrate	22%[57.1 µM]	4%[57.1 µM]	-5%	12%	-7%
Anesthetic bind	8%	-8%	?	-8%	-21%
miR-21 reporter	-4%	-2%	26%	?	1%
ClpP mod	35µM*	-1%	-2%	-1%	-1%

6) CCOC(=O)c1c(C)[nH]c(C)c1C(=O)COC(=O)/C=C/c1ccc(OC)cc1
7) CCN(C(=O)COC(=O)/C=C/c1ccc(F)cc1)C1CCCCC1
8) CCOC(=O)c1c(C)[nH]c(C)c1C(=O)COC(=O)/C=C/c1ccco1
9) CCN(C(=O)COC(=O)/C=C/c1ccco1)C1CCCCC1
10) C=CCn1c(Sc2ncc([N+](=O)[O-])s2)n[nH]c1=O
compound no.	6	7	8	9	10
rTrxR1 inhibitor	0%	4%	20µM*	35µM*	0.32µM*
TrxR1 substrate	-10%	-3%	-5%	-6%	12%[57.1 µM]
Anesthetic bind	nt	nt	nt	nt	-4%
miR-21 reporter	nt	nt	nt	nt	?
ClpP mod	16µM*	nt	2%	1%	-1%

11) O=[N+]([O-])c1cnc(Sc2ccncn2)s1
12) C=CCC(Nc1ccccc1)C12C=CC(O1)C(C(=O)OC)=C2C(=O)OC (stereo not drawn)
13) COC(=O)C1=C(C(=O)OC)[C@]2([C@@H]3CC=CCN[C@@H](Cc4ccccc4)C(=O)N3Cc3ccccc3)C=C[C@H]1O2
14) CC(=O)Nc1ccc2[nH]c(C)cc(=O)c2c1
15) CC(=O)Nc1ccc2[nH]c3ccccc3c2c1
compound no.	11	12	13	14	15
rTrxR1 inhibitor	?	7.9µM*	17%	-16%	19%
TrxR1 substrate	-11%	-2%	-2%	20%	8%
Anesthetic bind	0%	-11%	nt	2%	-7%
miR-21 reporter	?	6%	nt	0%	-17%
ClpP mod	-3%	0%	0%	32µM*	-20%

16) C=CC(=O)Nc1ccc(Br)cc1
17) NCC(=O)Nc1ccc(Br)cc1
18) COc1ccc(-c2nsc(NC(=O)c3ccccc3Br)n2)cc1
19) Cc1cc(C)cc(NC(=O)N2CCC3(CC2)Oc2ccccc2C(=O)N3Cc2ccccc2F)c1
20) COc1ccccc1-c1sc2ccccc2c1-c1ccc(O)cc1
compound no.	16	17	18	19	20
rTrxR1 inhibitor	-9%	9%	17%	29%	-3%
TrxR1 substrate	4%[57.1 µM]	-4%	5%	2%	3%
Anesthetic bind	-22%	-6%	-9%	1%	nt
miR-21 reporter	9%	6%	-34%	6%	nt
ClpP mod	16µM*	nt	1%	-4%	20µM*

# A draw from above in order of number of heavy atoms, smallest number first:
17) NCC(=O)Nc1ccc(Br)cc1
18) COc1ccc(-c2nsc(NC(=O)c3ccccc3Br)n2)cc1
20) COc1ccccc1-c1sc2ccccc2c1-c1ccc(O)cc1
compound no.	17	18	20
rTrxR1 inhibitor	9%	17%	-3%
TrxR1 substrate	-4%	5%	3%
Anesthetic bind	-6%	-9%	nt
miR-21 reporter	6%	-34%	nt
ClpP mod	nt	1%	20µM*

# (continued)
21) COc1cccc(-c2sc3ccc(OC)cc3c2-c2ccc(O)cc2)c1
22) COc1ccc2nc(Cl)c(C3CC(c4ccco4)=NN3C(=O)CCCC(=O)O)cc2c1 (stereo not drawn)
23) COc1ccc2nc(Cl)c(C3CC(c4ccco4)=NN3C(=O)CCC(=O)O)cc2c1 (stereo not drawn)
24) CCOCCCNC(=S)N1CCC(C(=O)c2ccc(C)cc2)CC1
25) CC(=O)Nc1ccc(S(=O)(=O)Oc2ccc(C(=S)N3CCCCC3)cc2)cc1
compound no.	21	22	23	24	25
rTrxR1 inhibitor	33%	40µM*	-6%[57.1 µM]	14%[57.1 µM]	7%
TrxR1 substrate	7%	4%	7%[57.1 µM]	11%[57.1 µM]	-8%
Anesthetic bind	nt	-8%	5%	-18%	-14%
miR-21 reporter	nt	-9%	-5%	1%	7%
ClpP mod	28µM*	nt	-7%	32µM*	4µM*

# Rewritten with values under each structure: entries from further up
# Every second line gives: rTrxR1 inhibitor, TrxR1 substrate, Anesthetic bind, miR-21 reporter, ClpP mod
21. COc1cccc(-c2sc3ccc(OC)cc3c2-c2ccc(O)cc2)c1
    33%, 7%, nt, nt, 28µM*
22. COc1ccc2nc(Cl)c(C3CC(c4ccco4)=NN3C(=O)CCCC(=O)O)cc2c1 (stereo not drawn)
    40µM*, 4%, -8%, -9%, nt
23. COc1ccc2nc(Cl)c(C3CC(c4ccco4)=NN3C(=O)CCC(=O)O)cc2c1 (stereo not drawn)
    -6%[57.1 µM], 7%[57.1 µM], 5%, -5%, -7%

# (more compounds)
26) COc1ccc(NC(=O)c2c(NCc3ccc(N(C)C)cc3)sc3c2CCC3)cc1
27) Cc1ccc2cc3c(N)c(C(=O)Nc4c(C)[nH]c(=O)[nH]c4=O)sc3nc2c1
28) COc1ccc(NC(=O)CN2C(=O)NC3(CCCc4ccccc43)C2=O)c(OC)c1 (stereo not drawn)
29) Nc1ccc(-c2nnc(-c3ccc(N)cc3)o2)cc1
30) Cc1cccc(-c2nnc(-c3ccc(N)cc3)o2)c1
compound no.	26	27	28	29	30
rTrxR1 inhibitor	?	6%	-18%	-17%	-1%
TrxR1 substrate	-4%[57.1 µM]	1%	-6%	94%	83%
Anesthetic bind	-3%	-13%	nt	40%	52%
miR-21 reporter	4%	2%	nt	-63%	-17%
ClpP mod	0%	16µM*	16µM*	3%	28µM*

31) COc1cccc(-c2nnc(-c3ccc(C(F)(F)F)cc3)o2)c1
32) Cc1ccc(-c2nnc(-c3ccc4ccccc4c3)o2)cc1
33) COc1cccc(-c2nnc(-c3ccc4ccccc4c3)o2)c1
34) O=C(CSc1nc2c(c(=O)[nH]1)CN(Cc1ccc3c(c1)OCO3)CC2)Nc1ccc(F)c(F)c1
35) Cc1cc(NS(=O)(=O)c2ccc(NC(=O)/C=C/c3ccco3)cc2)nc(C)n1
compound no.	31	32	33	34	35
rTrxR1 inhibitor	16%	12%	-19%	10%	13µM*
TrxR1 substrate	12%	89%	18%	1%	-10%
Anesthetic bind	-1%	nt	nt	-37%	0%
miR-21 reporter	-58%	nt	nt	-4%	2%
ClpP mod	-26%	14µM*	14µM*	1%	nt

36) O=C(/C=C/c1ccco1)Nc1ccc(CN2CCOCC2)cc1
37) O=C(/C=C/c1ccco1)Nc1ccc(C(=O)N2CCOCC2)cc1
38) O=C(/C=C/c1ccco1)Nc1ccc(N2CCCC2)cc1
39) COCCNC(=O)c1c(N)n(CCCn2ccnc2)c2nc3ccccc3nc12
40) COCCn1c(N)c(C(=O)Nc2sc3c(c2C(=O)OC)CCCC3)c2nc3ccccc3nc21
compound no.	36	37	38	39	40
rTrxR1 inhibitor	-26%	40µM*	32µM*	58%[57.1 µM]	-1%[57.1 µM]
TrxR1 substrate	-11%	-10%	-3%	121%[57.1 µM]	9%[57.1 µM]
Anesthetic bind	-5%	-10%	0%	994%	-2%
miR-21 reporter	-26%	-24%	-61%	1%	-4%
ClpP mod	1%	-2%	1%	16µM*	0%

41) COCCn1c(N)c(C(=O)NCc2cccs2)c2nc3ccccc3nc21
42) N#Cc1c(N)n(CCc2ccc(F)cc2)c2nc3ccccc3nc12
43) COCCCNC(=O)c1c(N)n(/N=C/c2cccs2)c2nc3ccccc3nc12
44) CN(CCCN(Cc1ccc(Cl)cc1)c1ccc(Br)cn1)C(=S)NCCCc1cnc[nH]1
45) Cc1nc2n(c(=O)c1CCN1CCC(c3noc4cc(F)ccc34)CC1)CCC[C@@H]2O
compound no.	41	42	43	44	45
rTrxR1 inhibitor	-5%	-5%	69%	1%	8%
TrxR1 substrate	110%	99%	101%	-5%	0%
Anesthetic bind	244%	264%	-6%	nt	nt
miR-21 reporter	3%	1%	-3%	nt	nt
ClpP mod	32µM*	32µM*	32µM*	-5%	-1%

46) COc1ccc(-n2nc(C(=O)NCc3ccco3)c3c4ccccc4n(C)c3c2=O)cc1
47) COCCNC(=O)c1c(N)n(-c2ccccc2)c2nc3ccccc3nc12
48) Nc1ccc(-n2c(N)c(C(=O)NCc3ccc4c(c3)OCO4)c3nc4ccccc4nc32)cc1
49) COCCCNC(=O)c1c(N)n(-c2ccccc2)c2nc3ccccc3nc12
compound no.	46	47	48	49
rTrxR1 inhibitor	67%	72%	-9%	60%
TrxR1 substrate	49%	389%	-4%	47%[57.1 µM]
Anesthetic bind	2%	247%	nt	444%
miR-21 reporter	-12%	-2%	nt	5%
ClpP mod	4%	18µM*	-16%	-20%
